Results taken from publication PMC10970644, “Molecular Pharmacology of Gelsemium Alkaloids on Inhibitory Receptors” (International Journal of Molecular Sciences, 2024).
Positions count from the first letter of the chain named.

Sequences of proteins named here, by UniProt entry; tags and fusion partners are left off. Residues count along the entry.
UniProt P20781, 23-496: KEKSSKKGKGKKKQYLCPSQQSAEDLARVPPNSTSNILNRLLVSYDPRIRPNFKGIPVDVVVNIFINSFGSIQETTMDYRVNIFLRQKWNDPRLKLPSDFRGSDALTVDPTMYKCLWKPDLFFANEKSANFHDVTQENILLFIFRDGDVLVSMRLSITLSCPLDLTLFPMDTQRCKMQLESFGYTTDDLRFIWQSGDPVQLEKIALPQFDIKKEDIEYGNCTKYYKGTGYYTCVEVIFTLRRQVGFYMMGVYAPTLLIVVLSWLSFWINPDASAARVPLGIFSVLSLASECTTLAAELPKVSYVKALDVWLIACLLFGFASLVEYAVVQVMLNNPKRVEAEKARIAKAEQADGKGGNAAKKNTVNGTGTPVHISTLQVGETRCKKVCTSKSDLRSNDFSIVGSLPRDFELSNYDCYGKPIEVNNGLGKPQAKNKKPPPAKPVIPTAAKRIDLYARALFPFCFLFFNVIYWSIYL

Tests used:
Assay type in all cases: cell-based
[1] = target: T1, α1β GlyR (Rattus norvegicus, UniProt P07727+P20781)
T1 construct: The cells were transfected with plasmids encoding the following proteins; expressed in transfected cells; host or cells: HEK293 (ATCC CRL-1573)
Description: (§1) The cells were transfected with plasmids encoding the following proteins: (i). rat GlyR α (1, 2, 3) subunits alone or combined with rat β subunits (Uniprot Accession Numbers: Q546L7, P22771, P20236, P20781); and (ii). rat GABAAR α1 combined with rat β2 and γ2 subunits (Uniprot Accession Numbers: P62813, P63138, P18508). The EGFP expression was used as a marker of successful protein expression. The transfection was performed using Lipofectamine 2000 (Invitrogen, ThermoFisher, Carlsbad, CA, USA) using the fabricant protocol. The plasmids used to express GlyRs and GABAARs have been previously described. To track the successful expression of GlyR β subunits and the GABAA γ2 or β2 subunit, these proteins were subcloned in the pIRES2-EGFP vector. The transfection ratio to obtain β-containing GlyRs was 1:5 of α:β, while the expression of γ2-containing GABAA receptors was 1:2:5 of α:β:γ2 [14, 15]. Chimeric GlyRs were described in a previous report. Site directed mutagenesis was performed by Charm Gene Science Mutagenex LLC. (Cumming, GA, USA). All the constructs were checked by full-length sequencing (SNPSaurus, Eugene, OR, USA).
(§2) In brief, patch electrodes (3–4 MΩ) were pulled from borosilicate glasses in a PC-100 puller (Narishige, Tokyo, Japan); then, they were filled with an intracellular solution, which contained (in mM) 120 CsCl, 8 EGTA, 10 HEPES (pH 7.4), 4 MgCl2, 0.5 GTP, and 2 ATP. The extracellular solution contained (in mM) 140 NaCl, 5.4 KCl, 2.0 CaCl2, 1.0 MgCl2, 10 HEPES (pH 7.4), and 10 glucose. Whole-cell patch-clamp recordings were performed at −60 mV with an Axoclamp 200B (Molecular Devices, Sunnyvale, CA, USA) or with HEKA EPC-10 (HEKA Elektronik GmbH, Reutlingen, Germany) amplifiers. […] Brief (3–5 s) pulses of agonist together with alkaloids were applied to cells. Stock solutions of the alkaloids were prepared in high purity distilled water. Aliquots of these stock solutions were diluted in reservoirs containing extracellular solution. […] The concentration–response curve parameters for the alkaloid inhibition (IC50, nH, and the maximal current inhibition) were obtained from the fitted curve of normalized concentration–response data points to the equation Iagonist = Imax (agonist)nH/((agonist)nH + (EC50)nH). The IC50 curves are best-fit mean ± SE from pooled data. […] The inhibition constant (Ki) was calculated using the Cheng–Prusoff equation (Ki = IC50/((2 + ([Agonist]/EC50)^nH)^1/nH − 1). The concentration of agonist corresponds to the sub-saturating agonist concentration used to obtain the IC50 for each alkaloid on a given GlyR subtype.

[2] = target: T2, α2β GlyR (Rattus norvegicus, UniProt P20781+P22771)
T2 construct: The cells were transfected with plasmids encoding the following proteins; expressed in transfected cells; host or cells: HEK293 (ATCC CRL-1573)
Description: as §1, §2

[3] = target: T3, α3 GlyR (Rattus norvegicus, UniProt P24524)
T3 construct: expressed in transfected cells; host or cells: HEK293 (ATCC CRL-1573)
T3 sequence (P24524 34-464): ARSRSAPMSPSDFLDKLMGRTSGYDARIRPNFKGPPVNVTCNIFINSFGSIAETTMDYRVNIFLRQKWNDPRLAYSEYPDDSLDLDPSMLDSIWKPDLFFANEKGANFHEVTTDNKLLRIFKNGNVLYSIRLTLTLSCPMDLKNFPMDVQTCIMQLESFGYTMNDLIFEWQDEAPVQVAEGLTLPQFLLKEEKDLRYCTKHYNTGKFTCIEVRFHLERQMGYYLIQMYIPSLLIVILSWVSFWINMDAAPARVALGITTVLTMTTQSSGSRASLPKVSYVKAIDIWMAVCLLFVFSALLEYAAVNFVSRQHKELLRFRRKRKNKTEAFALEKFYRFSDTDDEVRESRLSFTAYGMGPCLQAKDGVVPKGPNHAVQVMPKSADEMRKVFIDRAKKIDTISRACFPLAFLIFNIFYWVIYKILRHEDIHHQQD
Description: as §1, §2

[4] = target: T4, α1 GlyR (Rattus norvegicus, UniProt P07727)
T4 construct: expressed in transfected cells; host or cells: HEK293 (ATCC CRL-1573)
T4 sequence (P07727 29-457): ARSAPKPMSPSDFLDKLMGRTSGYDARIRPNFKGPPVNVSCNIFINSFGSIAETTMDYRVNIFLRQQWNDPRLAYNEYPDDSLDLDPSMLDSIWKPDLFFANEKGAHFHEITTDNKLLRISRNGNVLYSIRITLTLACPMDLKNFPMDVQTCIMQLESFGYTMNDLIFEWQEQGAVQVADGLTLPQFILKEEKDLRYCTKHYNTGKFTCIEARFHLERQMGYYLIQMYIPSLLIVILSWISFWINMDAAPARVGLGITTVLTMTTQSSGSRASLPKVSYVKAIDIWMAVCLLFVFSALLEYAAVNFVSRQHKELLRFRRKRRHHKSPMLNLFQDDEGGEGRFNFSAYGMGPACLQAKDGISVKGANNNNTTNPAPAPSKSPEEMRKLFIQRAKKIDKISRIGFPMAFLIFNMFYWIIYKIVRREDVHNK
Description: as §1, §2

[5] = target: T5, α2 GlyR (Rattus norvegicus, UniProt P22771)
T5 construct: The cells were transfected with plasmids encoding the following proteins; expressed in transfected cells; host or cells: HEK293 (ATCC CRL-1573)
T5 sequence (P22771 28-452): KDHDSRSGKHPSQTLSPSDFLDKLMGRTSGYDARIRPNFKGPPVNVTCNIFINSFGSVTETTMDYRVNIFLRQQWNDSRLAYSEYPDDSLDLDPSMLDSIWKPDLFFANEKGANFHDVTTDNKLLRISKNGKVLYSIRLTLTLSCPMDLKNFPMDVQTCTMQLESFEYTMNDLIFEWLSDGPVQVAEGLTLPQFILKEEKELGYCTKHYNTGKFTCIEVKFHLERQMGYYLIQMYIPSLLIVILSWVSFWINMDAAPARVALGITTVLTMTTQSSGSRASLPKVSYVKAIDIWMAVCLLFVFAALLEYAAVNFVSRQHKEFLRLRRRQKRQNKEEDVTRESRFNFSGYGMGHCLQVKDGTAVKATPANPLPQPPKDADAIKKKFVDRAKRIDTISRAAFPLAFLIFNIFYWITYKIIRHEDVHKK
Description: as §1, §2

[6] = target: T6, α3β GlyR (Rattus norvegicus, UniProt P20781+P24524)
T6 construct: The cells were transfected with plasmids encoding the following proteins; expressed in transfected cells; host or cells: HEK293 (ATCC CRL-1573)
Description: as §1
In brief, patch electrodes (3–4 MΩ) were pulled from borosilicate glasses in a PC-100 puller (Narishige, Tokyo, Japan); then, they were filled with an intracellular solution, which contained (in mM) 120 CsCl, 8 EGTA, 10 HEPES (pH 7.4), 4 MgCl2, 0.5 GTP, and 2 ATP. […]

[7] = target: T7, α1GlyR G160E (Rattus norvegicus, UniProt P07727, G188E); settings: read-out: EC50 of agonist (estimated)
T7 construct: expressed in transfected cells; host or cells: HEK293 (ATCC CRL-1573)
T7 sequence (P07727 29-457 G188E): T4 sequence (P07727 29-457) with G160E
Description: as §1, §2

[8] = target: T8, α1GlyR F63A (Rattus norvegicus, UniProt P07727, F91A); settings: read-out: EC50 of agonist (estimated)
T8 construct: expressed in transfected cells; host or cells: HEK293 (ATCC CRL-1573)
T8 sequence (P07727 29-457 F91A): T4 sequence (P07727 29-457) with F63A
Description: as §1, §2

Structure (SMILES) | Maximal Modulation Concentration [1] | Maximal Modulation Concentration [2] | Maximal Modulation Concentration [3] | Maximal Modulation Concentration [4] | concentration from which glycinergic currents were inhibited ([4]; no potentiation) | Maximal Modulation Concentration [5] | Maximal Modulation Concentration [6] | EC50 ([1]; read-out: EC50 of agonist) | EC50 [7] | EC50 ([4]; read-out: EC50 of agonist) | EC50 [8]
C=C[C@@]12CN(C)[C@H]3C[C@]14C(=Nc1ccccc14)[C@H]1C[C@@H]2[C@@H]3CO1 [koumine] | 300 µM | 300 µM | 300 µM | 300 µM | 10 µM | 200 µM | 300 µM | – | – | – | –
NCC(=O)O [glycine, reference compound] | – | – | – | – | – | – | – | 71 ± 4 µM | > 3000 µM | 76 ± 4 µM | > 8000 µM
